The target of assay [1] is T1, Butyrylcholinesterase (Equus caballus, UniProt Q9N1N9).
The target in assay [2] is T1, Butyrylcholinesterase. The source holds these as a separate data set.

By UniProt entry, the sequences of proteins in these tests, tags left out.
UniProt Q9N1N9, whole entry: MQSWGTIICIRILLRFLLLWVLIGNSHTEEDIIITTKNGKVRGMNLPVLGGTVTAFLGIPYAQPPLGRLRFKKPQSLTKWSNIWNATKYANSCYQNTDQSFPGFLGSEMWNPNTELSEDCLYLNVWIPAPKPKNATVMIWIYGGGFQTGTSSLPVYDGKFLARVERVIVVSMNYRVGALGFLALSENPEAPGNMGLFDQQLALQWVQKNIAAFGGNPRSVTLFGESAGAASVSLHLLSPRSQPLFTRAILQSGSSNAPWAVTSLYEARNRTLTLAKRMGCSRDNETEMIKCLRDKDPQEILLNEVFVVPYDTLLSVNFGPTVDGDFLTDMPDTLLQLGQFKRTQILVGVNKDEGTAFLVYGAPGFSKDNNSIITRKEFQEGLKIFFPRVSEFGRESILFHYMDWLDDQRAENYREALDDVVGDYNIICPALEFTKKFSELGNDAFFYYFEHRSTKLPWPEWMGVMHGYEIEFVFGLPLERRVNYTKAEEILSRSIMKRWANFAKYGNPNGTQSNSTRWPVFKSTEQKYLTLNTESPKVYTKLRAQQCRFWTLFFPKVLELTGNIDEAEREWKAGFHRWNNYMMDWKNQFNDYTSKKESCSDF

A word on the IC50: it is the concentration at which inhibition is half-maximal. `CCCN(CCC)CCCOc1c(OC)ccc2cc3[n+](cc12)CCc1cc2c(cc1-3)OCO2`: the half-maximal inhibitory concentration (IC50) at Butyrylcholinesterase [1] turned out to be 1480 nM; at Butyrylcholinesterase [2], 2880 nM.
As for `COc1ccc2cc3[n+](cc2c1OCCN(C)C)CCc1cc2c(cc1-3)OCO2`, the half-inhibitory concentration (IC50) on Butyrylcholinesterase [1] was found to be 936 nM; against Butyrylcholinesterase [2] it was 1650 nM.
The compound `COc1ccc2cc3[n+](cc2c1OC)CCc1cc2c(cc1-3)OCO2` [BERBERINE CHLORIDE] returned an IC50 against Butyrylcholinesterase [2] of 18200 nM.

Values taken from ChEMBL document CHEMBL1268919, “Berberine derivatives, with substituted amino groups linked at the 9-position, as inhibitors of acetylcholinesterase/butyrylcholinesterase” (Bioorg Med Chem Lett, 2010).
